# Data as given in publication PMC3068608 (Journal of medicinal chemistry, 2011).
# The chains behind the UniProt entries cited, without tags or fusion partners.
# UniProt P35372, whole entry: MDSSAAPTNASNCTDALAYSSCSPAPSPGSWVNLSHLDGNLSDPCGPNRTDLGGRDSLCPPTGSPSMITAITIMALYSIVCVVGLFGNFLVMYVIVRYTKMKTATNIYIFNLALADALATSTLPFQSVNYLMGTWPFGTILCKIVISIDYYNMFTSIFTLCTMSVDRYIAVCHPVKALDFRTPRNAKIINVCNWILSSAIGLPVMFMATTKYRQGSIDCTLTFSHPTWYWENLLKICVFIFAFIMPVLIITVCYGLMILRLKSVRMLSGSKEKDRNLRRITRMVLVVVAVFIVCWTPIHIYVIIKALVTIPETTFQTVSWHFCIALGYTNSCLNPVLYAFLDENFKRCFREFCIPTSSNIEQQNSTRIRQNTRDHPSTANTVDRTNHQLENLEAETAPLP
# Target: human μ opioid receptor (Homo sapiens, UniProt P35372)
# Assay: [35S]GTPγS binding mediated by the μ opioid receptor, CHO membranes
# Assay type: biochemical
# Details: read-out: Emax (% maximal stimulation)
row,SMILES,Emax [%]
1,"CNc1nc2cc3c(cc2s1)C[C@@H]1[C@@H]2CCCC[C@]32CCN1CCCF [13c, N′-Methyl-aminothiazolo[5,4-b]-N-fluoropropylmorphinan]",100 ± 5.3
2,"CCNc1nc2cc3c(cc2s1)C[C@@H]1[C@@H]2CCCC[C@]32CCN1CC1CC1 [19a, N′-Ethyl-aminothiazolo[5,4-b]-N-cyclopropylmethylmorphinan]",83 ± 2.5
